What was measured:
[1] = target: yeast 20S proteasome (yCP) β5 subunit (ChTL) (Saccharomyces cerevisiae, UniProt P23724+P30656); assay: X-ray crystal structure ([…] Å) and ChTL activity inhibition assay of yCP
[2] = target: yeast 20S proteasome (yCP) β2 subunit (TL) (Saccharomyces cerevisiae, UniProt P25043); assay: X-ray crystal structure ([…] Å), mM soaking; weaker TL inhibition

## CC(C)CCCCCCCCCC(=O)N[C@H](C(=O)N[C@H]1C[C@@H](O)CCNC(=O)/C=C/[C@H](C)NC1=O)[C@@H](C)O
[1]
  IC50: 27 nM
[2]
  IC50: > 200 nM
